Measured values taken from PMC11124525, “Pharmacokinetic–Pharmacodynamic Correlation Analysis of Rhodiola crenulata in Rats with Myocardial Ischemia” (Pharmaceuticals, 2024).

Conditions: rat
Protocol: A series concentration mixed reference solution with different concentrations was added to 100 μL plasma, and was treated according to the method under Section 4.6 to obtain the matrix standard curve sample. Samples with concentrations of 400, 100, and 10 ng/mL, respectively, were taken as quality control (QC) samples of high, medium, and low concentrations (HQC, MQC, LQC). The method was validated, including linearity, inter-day/intra-day precision, repeatability, stability, extraction recovery, and matrix effect, according to FDA bioanalytical method validation guidelines.

O=c1c(O)c(-c2ccc(O)cc2)oc2cc(O)cc(O)c12 [Kaempferol, kaempferol]
Stability RE (%) (50 ng/mL): 93.25% | Stability RE (%) (10 days, 10 ng/mL): 97.80%

Like-named read-outs stand apart in the source and are kept apart here.
